Assay results taken from patent US11753408B2, “Compounds and method for blocking transmission of malarial parasite” (The United States of America, as represented by the …, priority 2016, dated 2023).
pEC50: −log10 of the molar value.

How the values were obtained:
[1] = test system: Stage III-V gametocytes (blood stage P. falciparum parasites); test: In vitro drug activity on gametocytes (AlamarBlue viability assay); type: cell-based, Plasmodium falciparum; conditions: read-out: Gametocyte EC50, 72 h incubation
Experimental: (§1) Cell culture. Asexual parasites of P. falciparum strain 3D7 were cultured as described previously [Trager W, et al., Journal of Parasitology 2005, 91: 484-486], Stage III-V gametocytes were selected and enriched with 3-day treatment with 50 mM N-acetylglucosamine (NAG) and the following Percoll density gradient centrifugation after gametocyte production [Tanaka T Q, et al., Molecular and Biochemical Parasitology, 2011, 111: 160-163], Gametocytes of HB3 and Dd2 strains were produced and then set up for assay in a similar process. HepG2 cells (ATCC, cat. no. 77400) were cultured in 175-cm^2 tissue culture flasks with 30 ml growth medium at 37° C. in a 5% CO2 humidified atmosphere. Growth medium was made with Dulbecco's Modified Eagle Medium with 10% fetal bovine serum (FBS). Growth medium was replaced every other day and cells were passed at 75% confluence.
Compound screening experiments were performed as previously described [Tanaka T Q et al., Molecular and Biochemical Parasitology, 2013, 3188: 20-25], Briefly, 2.5 μl/well incomplete medium was dispensed into each well of 1,536-well plates using the Multidrop Combi followed by 23 nl compound transferring using the NX-TR Pintool (WAKO Scientific Solutions, San Diego, Calif.). 2.5 μl/well of gametocytes was dispensed with a seeding density of 20,000 cells/well using the Multidrop Combi. The assay plates were incubated for 72 h at 37° C. with 5% CO2. After addition of 5 μl/well of 2× AlamarBlue dye (Life Technologies, cat. no. DALI 100), the plates were incubated for 24 h at 37° C. with 5% CO2 and were read in a fluorescence detection mode (Ex=525 nm, Em=598 nm) on a ViewLux plate reader (PerkinElmer).
Stage III-V gametocytes (blood stage P. falciparum parasites) were enriched with treatment with 50 mM N-acetylglucosamine (NAG) and Percoll density gradient centrifugation as described previously^1. Briefly, 2.5 μl/well incomplete medium was dispensed into each well of 1,536-well plates using the Multidrop Combi followed by 23 nl compound transfer using the NX-TR Pintool (WAKO Scientific Solutions, San Diego, Calif.). Then, 2.5 μl/well of gametocytes was dispensed with a seeding density of 20,000 cells/well using the Multidrop Combi. The assay plates were incubated for 72 h at 37° C. with 5% CO2. After addition of 5 μl/well of 2× AlamarBlue dye (Life Technologies, cat. no. DALI 100), the plates were incubated for 24 h at 37° C. with 5% CO2 and then were read in a fluorescence detection mode (Ex=525 nm, Em=598 nm) on a ViewLux plate reader (PerkinElmer).

[2] = test system: Asexual parasites of P. falciparum strain 3D7; test: In vitro drug activity on asexual parasites (SYBR Green assay); type: cell-based, Plasmodium falciparum; conditions: for pEC50: read-out: Asexual EC50, P. falciparum 3D7 asexual parasites, 72 h
Experimental: as §1
Asexual parasites of P. falciparum strain 3D7 were cultured as described previously (Trager, W. et al., J. Parasitol. 2005, 91(3): 484-486). Drug activity on asexual stage parasites was tested using a SYBR Green assay as described previously (Eastman, R. T. et al., Antimicrob. Agents Chemother. 2013, 57(1): 425-435; Smilkstein, M. et al., Antimicrob. Agents Chemother. 2004, 48(5): 1803-1806). Briefly, parasites were diluted to 0.5% parasitemia in complete culture medium with 2% hematocrit and drugs diluted in DMSO (≤0.5%) and were loaded into a 96-well plate (200 μl/well). No drug and RBC alone wells were included as positive and background controls, respectively, and each testing condition was examined in duplicated. After 72 h incubation under the standard culture condition and a freeze-thaw lysis step at −80° C. and room temperature, 100 μl/well of lysis buffer containing SYBR Green I was added to the parasite culture and incubated for 30 min at room temperature. The fluorescence of each well was measured at 520 nm following excitation at 490 nm using a FLUOstar Optima™ microplate reader (BMG Labtech).

[3] = Microsomal stability (rat); type: in vitro ADME; conditions: rat microsomes
Solubility at pH 7.4 = type: physicochemical

Structure (SMILES)	pEC50 [2]	Microsomal Stability (rat) T1/2 [3] [min]	Sol @ pH 7.4 (ug/mL) (Solubility at pH 7.4)	Asexual EC50 (nM) ([2]; P. falciparum 3D7 asexual parasites, 72 h)	pEC50 [1]
Cn1c(=O)n(-c2ccc(S(C)(=O)=O)cc2)c2c3cc(-c4ccc(Cl)cc4)ccc3ncc21	6.35	>30.0	<1.0		5.88
CN(C)C(=O)c1ccc(-n2c(=O)[nH]c3cnc4ccc(-c5ccc(N)nc5)cc4c32)cc1	6.94	>30.0	4.9		5.25
CS(=O)(=O)c1ccc(-n2c(=O)[nH]c3cnc4ccc(-c5ccc(Cl)cc5)cc4c32)cc1	6.28	>30.0	<1.0		6.09
CN(C)C(=O)c1ccc(-n2c(=O)[nH]c3cnc4ccc(-c5ccc(Cl)cc5)cc4c32)cc1	5.85	18.5	<1.0		5.27
CN(C)Cc1ccc(-c2ccc3ncc4[nH]c(=O)n(-c5cccc(S(C)(=O)=O)c5)c4c3c2)cc1	5.11	>30	56.7		5.43
CN(C(=O)c1ccc(-n2c(=O)n(C)c3cnc4ccc(-c5ccc(Cl)c(O)c5)cc4c32)cc1)C1CC1	6.66	22.7	3.3		6.47
Cc1cc(C(=O)N2CCOCC2)ccc1-n1c(=O)n(C)c2cnc3ccc(-c4ccc(Cl)cc4)cc3c21	6.66	5.3	2		5.97
CN(C)C(=O)c1ccc(-n2c(=O)n(C)c3cnc4ccc(-c5ccc(Cl)cc5)cc4c32)cc1	6.94	25.8	<1.0		6.27
Cc1cc(C(=O)N2CCOCC2)ccc1-n1c(=O)[nH]c2cnc3ccc(-c4ccc(Cl)cc4)cc3c21	5.97	6.2	<1.0		5.72
O=C(c1ccc(-n2c(=O)[nH]c3cnc4ccc(-c5ccc(Cl)cc5)cc4c32)cc1)N1CCOCC1	5.66	18.5	<1.0		5.56
O=C(NC1CC1)c1ccc(-n2c(=O)[nH]c3cnc4ccc(-c5ccc(Cl)c(O)c5)cc4c32)cc1	5.96	19	<1.0		5.12
CN(C)Cc1ccc(-c2ccc3ncc4c(c3c2)n(-c2ccc(C(=O)N3CCOCC3)cc2)c(=O)n4C)cc1	5.32	>30.0	>77.0		5.10
CN(C)Cc1ccc(-c2ccc3ncc4[nH]c(=O)n(-c5ccc6c(c5)CN(C)C6=O)c4c3c2)cc1	5.25	2.2	54.4		4.77
CN(C(=O)c1ccc(-n2c(=O)n(C)c3cnc4ccc(-c5ccc(Cl)cc5)cc4c32)cc1)C1CC1	6.31	17.8	<1.0		5.58

Second part, led by results:

pEC50 [2]	Microsomal Stability (rat) T1/2 [3] [min]	Sol @ pH 7.4 (ug/mL) (Solubility at pH 7.4)	Asexual EC50 (nM) ([2]; P. falciparum 3D7 asexual parasites, 72 h)	Structure (SMILES)	pEC50 [1]
7.17	>30.0	4		Cn1c(=O)n(-c2ccc(S(C)(=O)=O)cc2)c2c3cc(-c4ccc(N)nc4)ccc3ncc21	6.64
7.29	>30	3.9		Cc1cc(C(=O)N2CCOCC2)ccc1-n1c(=O)n(C)c2cnc3ccc(-c4ccc(N)nc4)cc3c21	6.82
7.46	>30.0	7		CN(C)C(=O)c1ccc(-n2c(=O)n(C)c3cnc4ccc(-c5ccc(N)nc5)cc4c32)cc1	6.97
	12.2	<1.0	Inactive	O=C(c1ccc(-n2c(=O)[nH]c3cnc4ccc(-c5ccc(Cl)cc5)cc4c32)cc1)N1CCCCC1	4.43
7.26	>30.0	<1.0		Cn1c(=O)n(-c2ccc(C(=O)N3CCOCC3)cc2)c2c3cc(-c4ccc(Cl)c(O)c4)ccc3ncc21	6.62
6.52	>30.0	<1.0		Nc1ccc(-c2ccc3ncc4[nH]c(=O)n(-c5ccc(C(=O)N6CCOCC6)cc5)c4c3c2)cn1	5.48
7.29	>30.0	1.9		CN(C(=O)c1ccc(-n2c(=O)n(C)c3cnc4ccc(-c5ccc(N)nc5)cc4c32)cc1)C1CC1	6.92
7.22	15.6	<1.0		Cn1c(=O)n(-c2ccc(C(=O)N3CCCCC3)cc2)c2c3cc(-c4ccc(N)nc4)ccc3ncc21	6.80
7.09	>30.0	1.1		Cn1c(=O)n(-c2ccc(C(=O)N3CCOCC3)cc2)c2c3cc(-c4ccc(N)nc4)ccc3ncc21	6.97
6.00	5.5	<1.0		Cn1c(=O)n(-c2ccc(C(=O)N3CCCCC3)cc2)c2c3cc(-c4ccc(Cl)cc4)ccc3ncc21	5.73
6.97	6.5	<1.0		Nc1ccc(-c2ccc3ncc4[nH]c(=O)n(-c5ccc(C(=O)N6CCCCC6)cc5)c4c3c2)cn1	6.43
